Experimental data as given in patent publication US9265844B2, “Protease degradable polypeptides and uses thereof” (THE METHODIST HOSPITAL SYSTEM, priority 2010, dated 2016).

The chains behind the UniProt entries cited, without tags or fusion partners. Residues count along the entry.
UniProt P07339, 65-412: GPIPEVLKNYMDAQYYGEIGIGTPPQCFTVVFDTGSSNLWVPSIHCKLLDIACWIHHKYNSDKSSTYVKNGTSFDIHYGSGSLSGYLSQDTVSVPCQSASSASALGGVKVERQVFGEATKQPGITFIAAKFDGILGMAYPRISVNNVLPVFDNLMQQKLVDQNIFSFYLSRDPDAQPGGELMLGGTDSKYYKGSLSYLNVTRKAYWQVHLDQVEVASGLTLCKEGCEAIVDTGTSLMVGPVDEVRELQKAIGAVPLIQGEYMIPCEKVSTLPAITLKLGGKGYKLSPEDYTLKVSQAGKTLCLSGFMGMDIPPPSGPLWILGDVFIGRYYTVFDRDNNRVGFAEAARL

How the values were obtained:
Cath E = target: T1, Cath E (Homo sapiens, UniProt P14091); assay: Inhibition of substrate e hydrolysis by pepstatin A (Cath E); format: biochemical; parameters: purchased Calbiochem, EMD Bioscience (Gibbstown, N.J.); settings: 1 μL of 1 mM pepstatin A/methanol
T1 sequence (P14091 54-396): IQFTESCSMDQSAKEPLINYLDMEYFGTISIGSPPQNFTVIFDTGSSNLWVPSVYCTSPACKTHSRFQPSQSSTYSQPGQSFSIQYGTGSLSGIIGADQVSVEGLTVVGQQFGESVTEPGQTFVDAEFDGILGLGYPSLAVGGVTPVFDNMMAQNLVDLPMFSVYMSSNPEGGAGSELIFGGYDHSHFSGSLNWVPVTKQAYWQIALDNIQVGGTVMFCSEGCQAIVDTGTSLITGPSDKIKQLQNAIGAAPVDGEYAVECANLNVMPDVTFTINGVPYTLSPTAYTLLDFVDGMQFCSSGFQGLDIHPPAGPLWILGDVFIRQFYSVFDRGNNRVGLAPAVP
Protocol: (§1) Stock solution of pepstatin A was prepared by dissolving 2 mg pepstatin A in 1 mL of 10% (v/v) acetic acid in methanol. Substrate e solution (10 μL, 200 μM) in 50 mM sodium acetate buffer (pH 4) containing 150 mM NaCl, 46 pmol of Cathepsin E or D was added followed by 1 μL of 1 mM pepstatin A/methanol. Two sets of control experiments were performed simultaneously by replacing the enzymes with assay buffer and by using methanol instead of pepstatin A/methanol. All assays were performed in triplicate in 96 well assay plates and the change in the fluorescence intensity was monitored over time using λex=340 nm and λem=405 nm at 37° C.

Cath D = Cath D (Homo sapiens, UniProt P07339); assay: Inhibition of substrate e hydrolysis by pepstatin A (Cath D); format: biochemical; settings: 1 μL of 1 mM pepstatin A/methanol
Protocol: as §1

CC(C)CC(=O)N[C@H](C(=O)N[C@H](C(=O)N[C@@H](CC(C)C)[C@@H](O)CC(=O)N[C@@H](C)C(=O)N[C@@H](CC(C)C)[C@@H](O)CC(=O)O)C(C)C)C(C)C [pepstatin A]
inhibition of fluorescence signal of substrate e (Cath E): complete inhibition
inhibition of fluorescence signal of substrate e (Cath D): complete inhibition
